{"source": "patent US20230069749A1", "about": "“USE OF POZIOTINIB FOR THE TREATMENT OF CANCERS WITH NRG1 FUSIONS” (Board of Regents, The University of Texas System, priority 2020, published 2023)", "system": "NRG1-DOC4 fusion breast cancer cell line, MDA175-VII", "assay": "Cell viability of MDA175-VII cells by Cell Titer Glo assay", "type": "cell-based", "settings": "HER2 targeting antibody alone, 72 hours", "method": "The cell viability of NRG1-DOC4 fusion breast cancer cell line, MDA175-VII, was tested with treatment of poziotinib with and without antibodies and antibody drug conjugates (ADCs) targeting HER2 and HER2/HER3 dimerization. Cell viability was determined by the Cell Titer Glo assay."}
{"substance": "trastuzumab: humanized, IgG1 kappa, monoclonal antibody that selectively binds the extracellular domain of HER2 (ErbB2)", "values": [{"measurement": "IC50 values", "result": "> 10", "unit": "µg/mL"}]}
